The values that follow come from patent US10976306B2, “Protein degradation inducing tag and usage thereof” (Tokyo University of Science Foundation, priority 2015, dated 2021).

By UniProt entry, the sequences of proteins in these tests, tags left out. Where a name states a change or a piece, a line headed by the entry shows the natural chain unless it says otherwise.
UniProt P28074: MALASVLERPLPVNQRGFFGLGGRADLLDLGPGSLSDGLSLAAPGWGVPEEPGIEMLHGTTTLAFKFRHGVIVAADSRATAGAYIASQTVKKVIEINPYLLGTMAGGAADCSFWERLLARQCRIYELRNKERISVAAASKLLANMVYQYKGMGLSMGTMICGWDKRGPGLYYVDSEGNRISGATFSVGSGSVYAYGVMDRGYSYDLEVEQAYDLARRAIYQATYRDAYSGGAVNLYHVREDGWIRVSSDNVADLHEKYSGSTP
UniProt Q99436: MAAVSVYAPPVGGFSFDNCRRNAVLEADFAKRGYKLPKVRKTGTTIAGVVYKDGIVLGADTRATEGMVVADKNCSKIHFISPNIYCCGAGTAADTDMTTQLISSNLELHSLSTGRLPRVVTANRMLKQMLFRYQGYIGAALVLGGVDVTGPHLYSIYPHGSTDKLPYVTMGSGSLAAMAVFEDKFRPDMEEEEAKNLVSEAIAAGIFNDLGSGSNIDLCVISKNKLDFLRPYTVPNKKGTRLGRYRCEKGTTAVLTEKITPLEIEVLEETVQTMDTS

In assay [1] the target is β5 (chymotrypsin-like activity) of 20S proteasome (Homo sapiens, UniProt P28074). In words: 20S proteasome inhibitory activity, AMC fluorescent substrate Suc-LLVY-AMC.
For assay [2], the target named is β2 (trypsin-like activity) of 20S proteasome (Homo sapiens, UniProt Q99436). In words: 20S proteasome inhibitory activity, AMC fluorescent substrate Bz-VGR-AMC. To be noted: FIGS. 4B, 7B; compared with the original proteasome inhibitor alone.

As a reminder, the IC50 is the concentration that gives 50% inhibition. Turning to `CC(C)C[C@H](NC(=O)CNC(=O)c1cc(Cl)ccc1Cl)B(O)O` [MLN2238], half-maximal inhibition in assay [1] (IC50) was put at 43 nM.

As for `CC(C)C[C@H](NC(=O)[C@H](Cc1ccccc1)NC(=O)c1cnccn1)B(O)O` [Bortezomib], in assay [2], the “inhibitory activity against β2” value is “not significantly inhibited”.
